Data reported in US8815951B2, “Inhibitors of epoxide hydrolases for the treatment of inflammation” (The Regents of the University of California, priority 1996, dated 2014).
Where two headings read alike, the source gives them in different places.

The chains behind the UniProt entries cited, without tags or fusion partners. Where a name states a change or a piece, a line headed by the entry shows the natural chain unless it says otherwise.
UniProt P80299: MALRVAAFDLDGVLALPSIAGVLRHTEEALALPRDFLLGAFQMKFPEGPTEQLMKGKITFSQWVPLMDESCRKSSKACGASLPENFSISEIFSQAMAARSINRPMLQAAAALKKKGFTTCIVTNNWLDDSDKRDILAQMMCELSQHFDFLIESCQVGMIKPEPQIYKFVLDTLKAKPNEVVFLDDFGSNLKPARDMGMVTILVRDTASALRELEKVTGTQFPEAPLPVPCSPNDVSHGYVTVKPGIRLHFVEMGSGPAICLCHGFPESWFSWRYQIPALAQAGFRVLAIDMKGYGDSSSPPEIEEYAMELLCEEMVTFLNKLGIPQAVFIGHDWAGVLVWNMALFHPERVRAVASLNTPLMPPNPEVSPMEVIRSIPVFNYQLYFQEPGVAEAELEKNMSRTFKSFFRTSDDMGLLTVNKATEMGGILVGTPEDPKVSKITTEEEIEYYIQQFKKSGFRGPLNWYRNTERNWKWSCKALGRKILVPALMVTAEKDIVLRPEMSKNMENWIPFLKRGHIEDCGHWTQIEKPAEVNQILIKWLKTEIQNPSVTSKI

Experiments:
[1] = biological target: EET hydrolysis in SHR renal S9 fractions (sEH) (Rattus norvegicus, UniProt P80299)
[2] = tested on: 14,15-EET hydrolysis in vivo (sEH), SHR; assay: Urinary DHET and EET excretion in SHR (GC-MS); design: species or system rat; conditions: DCU daily for 3 days, FIG. 4B
mEH = conditions: previous studies, Morisseau et al. 1999; cited from earlier work

Which results are given for O=C(NC1CCCCC1)NC1CCCCC1 [DCU, N,N′-dicyclohexylurea]?
inhibition of EET hydrolysis in vitro ([1]; FIG. 4A): potent and selective inhibitor of EET hydrolysis in vitro; IC50 ([1]; read-out: IC50 inhibition of 8,9-EET hydrolysis, 50 μM EET): 86 ± 14 nM; IC50 ([1]; read-out: IC50 inhibition of 11,12-EET hydrolysis, 50 μM EET): 540 ± 80 nM; IC50 ([1]; read-out: IC50 inhibition of 14,15-EET hydrolysis, 50 μM EET): 450 ± 160 nM; inhibition of 14,15-EET hydrolysis in vivo [2]: potent inhibitor of 14,15-EET hydrolysis in vivo; inhibition of mEH (mEH): does not inhibit
